Measured values from PubChem BioAssay (NCI).
Some tests of the compounds listed are not included; inactive here does not mean inactive elsewhere.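 Following 48 hours of exposure in 96-well plates, responses at five concentrations were used to interpolate endpoints linearly. TGI: concentration producing complete growth inhibition.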

Legend:
Assay in all cases: NCI tumour cell line growth inhibition, 48 h
786-0 renal = tested on: 786-0 renal
A498 renal = tested on: A498 renal
A549 NSCLC = tested on: A549 NSCLC
ACHN renal = tested on: ACHN renal
BT-549 breast = tested on: BT-549 breast
CAKI-1 renal = tested on: CAKI-1 renal
CCRF-CEM leukemia = tested on: CCRF-CEM leukemia
COLO 205 colon = tested on: COLO 205 colon
DU-145 prostate = tested on: DU-145 prostate
EKVX NSCLC = tested on: EKVX NSCLC
HCT-116 colon = tested on: HCT-116 colon
HCT-15 colon = tested on: HCT-15 colon
HL-60(TB) leukemia = tested on: HL-60(TB) leukemia
HOP-62 NSCLC = tested on: HOP-62 NSCLC
HOP-92 NSCLC = tested on: HOP-92 NSCLC
HS 578T breast = tested on: HS 578T breast
HT29 colon = tested on: HT29 colon
IGROV1 ovarian = tested on: IGROV1 ovarian
K-562 leukemia = tested on: K-562 leukemia
LOX IMVI melanoma = tested on: LOX IMVI melanoma
M14 melanoma = tested on: M14 melanoma
MALME-3M melanoma = tested on: MALME-3M melanoma
MCF7 breast = tested on: MCF7 breast
MDA-MB-231 breast = tested on: MDA-MB-231 breast
MDA-MB-435 = tested on: MDA-MB-435
MDA-N = tested on: MDA-N
MOLT-4 leukemia = tested on: MOLT-4 leukemia
NCI-H226 lung = tested on: NCI-H226 lung
NCI-H23 lung = tested on: NCI-H23 lung
NCI-H322M lung = tested on: NCI-H322M lung
NCI-H522 lung = tested on: NCI-H522 lung
NCI/ADR-RES ovarian = tested on: NCI/ADR-RES ovarian
OVCAR-3 ovarian = tested on: OVCAR-3 ovarian
OVCAR-4 ovarian = tested on: OVCAR-4 ovarian
OVCAR-5 ovarian = tested on: OVCAR-5 ovarian
OVCAR-8 ovarian = tested on: OVCAR-8 ovarian
PC-3 prostate = tested on: PC-3 prostate
RPMI-8226 leukemia = tested on: RPMI-8226 leukemia
RXF 393 renal = tested on: RXF 393 renal
SF-268 CNS = tested on: SF-268 CNS
SF-295 CNS = tested on: SF-295 CNS
SF-539 CNS = tested on: SF-539 CNS
SK-MEL-2 melanoma = tested on: SK-MEL-2 melanoma
SK-MEL-28 melanoma = tested on: SK-MEL-28 melanoma
SK-MEL-5 melanoma = tested on: SK-MEL-5 melanoma
SK-OV-3 ovarian = tested on: SK-OV-3 ovarian
SN12C renal = tested on: SN12C renal
SNB-19 CNS = tested on: SNB-19 CNS
SNB-75 CNS = tested on: SNB-75 CNS
SR leukemia = tested on: SR leukemia
T-47D breast = tested on: T-47D breast
TK-10 renal = tested on: TK-10 renal
U251 CNS = tested on: U251 CNS
UACC-257 melanoma = tested on: UACC-257 melanoma
UACC-62 melanoma = tested on: UACC-62 melanoma
UO-31 renal = tested on: UO-31 renal

Measured: TGI

O=C(OCCN1C2CCCC1CCC2)C(O)(c1ccccc1)c1ccccc1
> 100 µM: all assays above
